The values below come from patent US20090298857A1, “Treatment of Neurodegenerative Diseases Through Inhibition of HSP90” (SLOAN-KETTERING INSTITUTE FOR CANCER RESEARCH, priority 2006, published 2009).

The experiment relates to Hsp90 in JNPL3 brain extracts.

The structures appear in SMILES notation.

In general, EC50 refers to the concentration giving half of the maximal effect.

Take `C#CCN(C)CCCn1c(Cc2cc3c(cc2I)OCO3)nc2c(N)nc(F)nc21` [PU-BSI11]: the EC50 was 29.9 nM.
